Experimental data taken from BindingDB's records for 2172538.

The chains behind the UniProt entries cited, without tags or fusion partners.
UniProt Q99720, whole entry, looked up: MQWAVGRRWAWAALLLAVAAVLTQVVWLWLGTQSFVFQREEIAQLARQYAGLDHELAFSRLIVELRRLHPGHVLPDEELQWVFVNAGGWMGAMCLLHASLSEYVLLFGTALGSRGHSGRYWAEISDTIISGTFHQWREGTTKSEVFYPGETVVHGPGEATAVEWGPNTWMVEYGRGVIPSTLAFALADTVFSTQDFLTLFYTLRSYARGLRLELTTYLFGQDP

Key:
[1] = target: T1, Sigma non-opioid intracellular receptor 1 (Homo sapiens, UniProt Q99720); assay: Binding affinity for sigma opioid receptor using [3H](+)-3-PPP as radioligand
[2] = target: T1, Sigma non-opioid intracellular receptor 1; assay: Affinity of compound to Sigma opioid receptor labelled with [3H](+)-3-PPP

## CN(C(=O)Cc1ccc([N+](=O)[O-])cc1)C1CCCC[C@@H]1N1CCCC1 (some centres not stated)
[1]
  IC50: 2370 nM

## CN(C(=O)Cc1cccc2ccccc12)C1CCCC[C@H]1N1CCCC1 (some centres not stated)
[1]
  IC50: 77 nM

## CN(C(=O)Cc1ccc(Br)cc1)C1CCCC[C@@H]1N1CCCC1 (some centres not stated)
[1]
  IC50: 228 nM

## CN(C(=S)Nc1ccc(Cl)c(Cl)c1)C1CCCC[C@@H]1N1CCCC1 (some centres not stated)
[1]
  IC50: 3270 nM

## CN(C(=O)OCc1ccccc1)C1CCCC[C@@H]1N1CCCC1 (some centres not stated)
[1]
  IC50: 928 nM

## CN(C(=O)Cc1cc(Cl)c(Cl)cc1[N+](=O)[O-])C1CCCC[C@@H]1N1CCCC1 (some centres not stated)
[1]
  IC50: 5950 nM

## CN(C(=O)Cc1ccccc1Cl)C1CCCC[C@@H]1N1CCCC1 (some centres not stated)
[1]
  IC50: 870 nM

## CN(C(=O)Cc1ccc(Cl)cc1Cl)[C@@H]1CCCC[C@@H]1N1CCCC1
[1]
  IC50: 278 nM

## CN(CCc1ccccc1)C1CCCC[C@H]1N1CCCC1 (some centres not stated)
[1]
  IC50: 125 nM

## CN(C(=O)Cc1cccc([N+](=O)[O-])c1)C1CCCC[C@@H]1N1CCCC1 (some centres not stated)
[1]
  IC50: 1610 nM

## CN(C(=O)Cc1cccs1)C1CCCC[C@H]1N1CCCC1 (some centres not stated)
[1]
  IC50: 1520 nM

## CN(C(=O)Cc1c(Cl)cccc1Cl)C1CCCC[C@@H]1N1CCCC1 (some centres not stated)
[1]
  IC50: 1380 nM

## CN(CCc1ccc2ccccc2c1)C1CCCC[C@H]1N1CCCC1 (some centres not stated)
[1]
  IC50: 37 nM

## CN(C(=O)Cc1ccc2ccccc2c1)C1CCCC[C@@H]1N1CCCC1 (some centres not stated)
[2]
  Ki: 1370 nM

## CN(C(=O)Cc1ccccc1)C1CCCC[C@@H]1N1CCCC1 (some centres not stated)
[1]
  IC50: 1160 nM

## CN(C(=O)Cc1ccc2c(c1)OCO2)C1CCCC[C@H]1N1CCCC1 (some centres not stated)
[2]
  Ki: 7210 nM

## CN(C(=O)Cc1cc(Cl)c(Cl)cc1N)C1CCCC[C@@H]1N1CCCC1 (some centres not stated)
[1]
  IC50: 12 nM

## CN(C(=O)Cc1ccc(Cl)cc1)C1CCCC[C@@H]1N1CCCC1 (some centres not stated)
[1]
  IC50: 224 nM

## CN(C(=O)Nc1ccc(Cl)c(Cl)c1)C1CCCC[C@@H]1N1CCCC1 (some centres not stated)
[1]
  IC50: 5300 nM

## CN(C(=O)Cc1ccsc1)C1CCCC[C@H]1N1CCCC1 (some centres not stated)
[1]
  IC50: 2100 nM

## CN([C@H]1CCCC[C@H]1N1CCCC1)S(=O)(=O)c1ccccc1
[1]
  IC50: 966 nM

## CN(CCc1ccc2c(c1)OCO2)C1CCCC[C@H]1N1CCCC1 (some centres not stated)
[2]
  Ki: 90 nM
